# From PubChem BioAssay AID2130 (The Scripps Research Institute Molecular Screening Center, 2009)
# Chains of the proteins cited; added tags and fusions are not shown. Lines headed by an entry give the natural chain unless they say otherwise; changes in a name come on top.
# UniProt Q9Y570: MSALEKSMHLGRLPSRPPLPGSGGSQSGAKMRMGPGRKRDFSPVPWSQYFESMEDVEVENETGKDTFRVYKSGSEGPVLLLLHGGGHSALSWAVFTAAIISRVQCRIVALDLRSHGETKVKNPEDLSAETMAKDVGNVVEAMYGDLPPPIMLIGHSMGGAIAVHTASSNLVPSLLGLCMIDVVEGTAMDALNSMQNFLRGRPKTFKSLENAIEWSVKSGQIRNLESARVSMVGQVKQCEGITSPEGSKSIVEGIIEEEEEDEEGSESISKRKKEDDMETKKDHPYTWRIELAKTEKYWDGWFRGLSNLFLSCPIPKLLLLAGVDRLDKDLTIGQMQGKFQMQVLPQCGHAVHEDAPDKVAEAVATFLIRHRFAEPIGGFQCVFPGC
# This is a selection; strong and weak results do not stand in their true shares. The source made the active and inactive calls.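 How the source made its calls: active means inhibition above the campaign mean of all compounds plus 3 SD (cut at about 26% in these data); inactive means the rest.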
# Molecular target: Protein phosphatase methylesterase 1 (Homo sapiens) (UniProt Q9Y570)
# Assay: human PME-1 methylesterase blockers – biochemical, fluorescence polarization, FP-Rh probe, HTS, primary screen (AID 2130);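 further: competitive labeling of PME-1 active site by serine hydrolase directed probe; 0% = PME-1 with DMSO and 100% = wells lacking PME-1 enzyme; inhibitors block probe labeling so polarization falls and inhibition rises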
# Settings: recombinant PME-1, FP-Rh probe fluorescence polarization; at 5.9 µM; hits give high values
row,SMILES,inhibition
1,CC(=O)Nc1ccc(Oc2c([N+](=O)[O-])cc([N+](=O)[O-])cc2[N+](=O)[O-])cc1,inactive: 3.14%
2,CC(=O)Nc1ccc([As](=O)(O)O)c(O)c1,inactive: -4.91%
3,C[C@@H]1C=CCP(=O)(Oc2ccccc2)O1 (stereo partly specified),inactive: 5.15%
4,C[C@H]1OP(=O)(Oc2ccccc2)C[C@@H]2O[C@@H]21 (stereo partly specified),inactive: 2.93%
5,Cc1ccccc1CN(C)C(=O)COC(=O)C(O)(c1ccccc1)c1ccccc1,inactive: 2.4%
6,CC(=O)c1ccc(N2CC2c2ccncc2)cc1 (stereo unspecified),inactive: -8.05%
7,CC(C)(C)C(=O)NC(Sc1ccccc1)C(Cl)(Cl)Cl (stereo unspecified),inactive: -7.42%
8,CCOc1ccc(C2=NCC(CBr)S2)cc1 (stereo unspecified),inactive: 5.58%
9,O=P1(Nc2nc3ccc(Cl)cc3s2)COc2ccccc2O1 (stereo unspecified),inactive: -3.27%
10,CN(C)C(=O)Oc1noc2ccccc12,inactive: -4.84%
11,Cc1ccccc1OP(=O)(Nc1ccccn1)Oc1ccccc1C,inactive: 4.41%
12,CCC(=O)N1C2C3N(C(=O)CC)C1C1N(C(=O)CC)C(C(N1C(=O)CC)N3C(=O)CC)N2C(=O)CC,inactive: -3.26%
13,O=C(OC1CN2CCC1CC2)c1ccccc1 (stereo unspecified),inactive: -8.27%
14,CC(=O)NC(SC(=S)N(CC(C)C)CC(C)C)C(Cl)(Cl)Cl (stereo unspecified),inactive: 6.83%
15,Cc1ccc(OP(=O)(Nc2ccccn2)Oc2ccc(C)cc2)cc1,inactive: 2.26%
16,COC(=O)c1cc2c(s1)N=C(c1ccccc1)N(C)P2(=O)N1CCOCC1 (stereo unspecified),inactive: -8.83%
17,Cc1ccc(NP(=O)(Oc2cccc(C)c2)Oc2cccc(C)c2)nc1,inactive: -3.19%
18,CCOC(=O)NC(Sc1ccccc1)C(Cl)(Cl)Cl (stereo unspecified),inactive: 2.6%
19,c1ccc(-c2nn[nH]n2)c(-c2nn[nH]n2)c1,inactive: 4.92%
20,CCNC(=S)/N=C(\N)N[N+](=O)[O-],inactive: -3.22%
21,O=C(OC1CN2CCC1CC2)c1cccc(Cl)c1 (stereo unspecified),inactive: -9.38%
22,Nc1ccc([As](=O)(O)c2ccc([N+](=O)[O-])cc2)cc1,inactive: 3.95%
23,C(Cc1nn[nH]n1)Cc1nn[nH]n1,inactive: -3.6%
24,O=[As](O)(c1ccccc1)c1ccc(O)cc1,inactive: 8.48%
25,O=[N+]([O-])c1ccc(O)c(/C=N/Nc2ccc([N+](=O)[O-])cc2[N+](=O)[O-])c1,inactive: 14.1%
26,CC(=O)NC(SC(=S)N(C)C)C(Cl)(Cl)Cl (stereo unspecified),inactive: -5.91%

row,SMILES,inhibition
1,O=[N+]([O-])c1ncn(CCn2cnc([N+](=O)[O-])n2)n1,inactive: -4.68%
2,C[C@H]1OP(=O)(Oc2ccccc2)[C@H](O)[C@H](O)[C@H]1N=[N+]=[N-] (stereo partly specified),inactive: 4.85%
3,O=P(Nc1nc2ccccc2s1)(c1ccccc1)c1ccccc1,inactive: 9.15%
4,O=P(Nc1ccccn1)(c1ccc(Br)cc1)c1ccc(Br)cc1,inactive: -2.63%
5,CN(C)C1(CNC(=O)c2ccc(Cl)c(S(N)(=O)=O)c2)CCCCC1,inactive: 7.9%
6,c1nnnn1CCn1cnnn1,inactive: -7.27%
7,CC(C)C(=O)NC(Sc1ccccc1)C(Cl)(Cl)Cl (stereo unspecified),inactive: 1.49%
8,O=P(Nc1nccs1)(c1ccccc1)c1ccccc1,inactive: 7.34%
9,CC1CCN(C(=O)Oc2c(Cl)cc(Cl)c3cccnc23)CC1,inactive: -3.24%
10,CN(C)C(=O)OCCc1n(C)cc[n+]1C,inactive: 0.81%
11,CC(C)=N/N=C(\N)N[N+](=O)[O-],inactive: -1.95%
12,CCN(/C(=N/P(=O)(N1CCOCC1)N1CCOCC1)N1CCOCC1)c1ccc(OC)cc1,inactive: 1.52%
13,C[N+]1=C2C=CC=CC=C2SC12C([N+](=O)[O-])=CC([N+](=O)[O-])=C[C-]2[N+](=O)[O-] (stereo unspecified),inactive: 17.4%
14,Nc1ccc([As](=O)(O)c2ccc(N)cc2)cc1,inactive: -3.36%
15,CCc1nc2c(n1)c1c(non1O)c1c2no[n+]1[O-],inactive: 22%
16,O=[N+]([O-])c1cc([N+](=O)[O-])c(CCNc2ccccc2)c([N+](=O)[O-])c1,active: 31.6%
17,Cc1ccc(NP(=O)(Oc2ccccc2)Oc2ccccc2)nc1,inactive: -3.93%
18,O=[N+]([O-])c1cccc2n[nH]nc12,inactive: -1.05%
19,CC(=O)N1C2C3N(C(C)=O)C1C1N(C(C)=O)C(C(N1C(C)=O)N3C(C)=O)N2C(C)=O,inactive: -5.21%
20,COc1ccc(C2=NCC(CBr)S2)cc1 (stereo unspecified),inactive: -1.43%
21,O=[N+]([O-])c1cccc(NC2=NCC(CBr)S2)c1 (stereo unspecified),inactive: 6.81%
22,O=[N+]([O-])c1ncn(CCn2ncnc2[N+](=O)[O-])n1,inactive: -3.95%
23,CC(C)(C)C(=O)NC(Sc1ccncn1)C(Cl)(Cl)Cl (stereo unspecified),inactive: 2.9%
24,O=C(Nc1cc([As](=O)(O)O)ccc1O)c1ccccc1,inactive: 5.97%
25,CCN(N=Nc1nonc1N)c1nonc1N,inactive: -2.18%
26,O=[N+]([O-])c1cc([N+](=O)[O-])c(CCN2CCOCC2)c([N+](=O)[O-])c1,active: 59.4%

row,SMILES,inhibition
1,Cc1ccc(NP(=O)(Oc2ccccc2F)Oc2ccccc2F)nc1,inactive: 0.74%
2,CN(C(=O)Cc1ccc(Cl)c(Cl)c1)[C@H]1CCCC[C@@H]1N1CCCC1,inactive: -8.94%
3,CCOP(=O)(Nc1ccccc1)OCC,inactive: 2.55%
4,Cc1cc(SC(NC(=O)c2ccc(F)cc2)C(Cl)(Cl)Cl)ncn1 (stereo unspecified),inactive: 3.26%
5,O=P(Nc1nc2ccc(Cl)cc2s1)(c1ccccc1)c1ccccc1,inactive: 7.59%
6,O=C(O)c1ccccc1[As](=O)(O)O,inactive: 0.43%
7,CC(=O)Nc1ccc([As](=O)(O)O)cc1,inactive: -5.46%
8,Cc1c2non([O-])c-2c(C)[n+](=O)[n+]1[O-],inactive: -6.58%
9,O=C(NC(Sc1ccncn1)C(Cl)(Cl)Cl)c1ccccc1 (stereo unspecified),inactive: -2.37%
10,Oc1ccccc1CNc1ccccn1,inactive: -4.25%
11,CC(C)CC(=O)NC(Sc1ccc(Cl)cc1)C(Cl)(Cl)Cl (stereo unspecified),inactive: -2.11%
12,Nc1cc(N)c2nonc2c1[N+](=O)[O-],inactive: -0.17%
13,Clc1ccc(Cl)c(NC2=NCC(CBr)S2)c1 (stereo unspecified),inactive: -7.15%
14,CN1CCCC(OC(=O)C(c2ccccc2)c2ccccc2)C1 (stereo unspecified),inactive: 1.89%
15,Cc1ccc(OP(=O)(Nc2nccs2)Oc2ccc(C)cc2)cc1,inactive: 2.47%
16,COc1ccccc1OP(=O)(Nc1ccc(C)cn1)Oc1ccccc1OC,inactive: -0.19%
17,Cc1ccc(N/C(=N/P(=O)(N2CCOCC2)N2CCOCC2)N2CCOCC2)cc1,inactive: -0.24%
18,CN(C(=O)Cc1ccc(Cl)c(Cl)c1)[C@H]1CCCC[C@H]1N1CCCC1,inactive: -0.19%
19,NC(=O)c1cc([N+](=O)[O-])cc([N+](=O)[O-])c1N,inactive: 2.93%
20,COc1ccc(N/C(=N/P(=O)(N2CCOCC2)N2CCOCC2)N2CCOCC2)cc1,inactive: 1.42%
21,COc1cc(I)ccc1[As](=O)(O)O,inactive: -1.48%
22,COc1ccc2nc(NP(=O)(c3ccccc3)c3ccccc3)sc2c1,inactive: -1.76%
23,Cc1c2c(nc3ccccc13)SC(C(Cl)Cl)C2 (stereo unspecified),inactive: -2.59%
24,Cc1cc(=O)[nH]c(N[N+](=O)[O-])n1,inactive: 3.16%
25,O=C(OC1CN2CCC1CC2)C12CC3CC(CC(C3)C1)C2 (stereo unspecified),inactive: 1.6%
26,O=[N+]([O-])c1cc([N+](=O)[O-])c(-c2ccn[nH]2)s1,inactive: -5.63%

row,SMILES,inhibition
1,CCN(CC)C(=S)SC(NC=O)C(Cl)(Cl)Cl (stereo unspecified),inactive: 0.92%
2,CC(C)NC(=O)NP(=O)(Oc1ccccc1)Oc1ccccc1,inactive: 7.61%
3,ClCCSc1nnc(-c2cccnc2)o1,inactive: -4.25%
4,CC(C)c1ccc(OP(=O)(Nc2ccccn2)Oc2ccccc2F)cc1 (stereo unspecified),inactive: 1.88%
5,Cc1ccc(OP(=O)(Nc2ccc([N+](=O)[O-])cn2)Oc2ccc(C)cc2)cc1,inactive: 4.28%
6,Cc1ccc2nc3c(c(C)c2c1)CC(C(Cl)Cl)S3 (stereo unspecified),inactive: 6.9%
7,COc1cc(C(=O)NCC2(N3CCOCC3)CCCCC2)ccc1OCC(C)C,inactive: 0.14%
8,C[As](=O)(O)c1cccc(C(=O)O)c1,inactive: -1.6%
9,O=[As](O)(c1ccc(O)cc1)c1ccccc1O,inactive: -2.98%
10,O=P(Nc1ccccn1)(c1cccc2ccccc12)c1cccc2ccccc12,inactive: 2.21%
11,Cc1cc(SC(NC=O)C(Cl)(Cl)Cl)ncn1 (stereo unspecified),inactive: 0.42%
12,CCOC(=O)Nc1cccc([As](=O)(O)O)c1,inactive: -3.62%
13,Cc1cc(SC(NC(=O)c2ccccc2)C(Cl)(Cl)Cl)nc(C(C)C)n1 (stereo unspecified),inactive: -1.45%
14,CCOC(=O)Nc1ccc([As](=O)(O)O)c(O)c1,inactive: 5.21%
15,CCC(C)N(CC(C)C)C(=S)SC(NC(C)=O)C(Cl)(Cl)Cl (stereo unspecified),inactive: 2.39%
16,O=C(OC1CN2CCC1CC2)c1cccc([N+](=O)[O-])c1 (stereo unspecified),inactive: -1.86%
17,CCOC(=O)c1ccc(NC(=O)C(C)(CCl)SC)cc1 (stereo unspecified),inactive: -1.99%
18,O=C(Nc1ccncc1[N+](=O)[O-])c1ccc([N+](=O)[O-])cc1[N+](=O)[O-],inactive: 4.04%
19,O=C(COc1ccccc1)OC1CN2CCC1CC2 (stereo unspecified),inactive: -6%
20,COP1(=S)c2c(C)nn(CCC#N)c2N=C(c2ccc(F)cc2)N1C (stereo unspecified),inactive: -4.44%
21,CC(C)/C=N\N=C(\N)N[N+](=O)[O-],inactive: 0.23%
22,CN(C(=O)Cc1ccc(Cl)c(Cl)c1)[C@@H]1CCCC[C@H]1N1CCCC1,inactive: 2.4%
23,CC1(CBr)Cn2c(nc3ccccc3c2=O)S1 (stereo unspecified),inactive: -3.43%
